Experimental findings from patent US20090142411A1, “Composition and Device Comprising an Inorganic Component (Metal Compound) for Coagulation of Protein-Containing Fluids” (SMITH & NEPHEW, PLC, priority 2005, published 2009) are described below.

Sequences of proteins named here, by UniProt entry; tags and fusion partners are left off. Residues count along the entry.
UniProt P02769, 25-607: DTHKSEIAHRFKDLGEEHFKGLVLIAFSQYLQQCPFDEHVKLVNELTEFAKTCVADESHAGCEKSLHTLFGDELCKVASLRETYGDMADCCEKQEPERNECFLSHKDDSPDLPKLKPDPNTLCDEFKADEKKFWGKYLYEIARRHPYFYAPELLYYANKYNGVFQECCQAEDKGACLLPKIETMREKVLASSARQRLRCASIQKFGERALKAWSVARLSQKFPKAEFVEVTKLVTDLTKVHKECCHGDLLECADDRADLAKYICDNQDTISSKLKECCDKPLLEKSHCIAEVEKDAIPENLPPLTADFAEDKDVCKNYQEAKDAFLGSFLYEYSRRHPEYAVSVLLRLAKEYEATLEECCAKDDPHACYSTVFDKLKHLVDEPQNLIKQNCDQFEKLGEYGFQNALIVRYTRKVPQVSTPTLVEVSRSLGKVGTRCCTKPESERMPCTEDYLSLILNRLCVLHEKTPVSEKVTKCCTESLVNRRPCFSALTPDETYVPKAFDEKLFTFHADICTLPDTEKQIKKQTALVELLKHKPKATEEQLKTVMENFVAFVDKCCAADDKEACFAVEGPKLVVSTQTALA

This assay has as its target bovine serum albumin (Bos taurus, UniProt P02769). Briefly: coagulation of bovine serum albumin solution. As for the experimental part:
The oxide powder was allowed to settle to the bottom of the vessel (0.5 ml capacity Eppendorf tube) and was left undisturbed for 2 hours.
(§1) The vessel was left undisturbed for 30 minutes.
as §1, §1, §1, §1
The vessel was left undisturbed for 24 h.

On to gold (III) chloride, for which the coagulation entry (1 μl aliquot of 350 mg/ml solution in PBS pH 7.4, 100 μl BSA 40 mg/ml, 30 minutes) was “a coagulated, opaque mass of several millimetres thickness was formed”; the coagulation entry (2 μl aliquot of 350 mg/ml solution in PBS pH 7.4, 100 μl BSA 40 mg/ml, 30 minutes) was “a coagulated, opaque mass of several millimetres thickness was formed”; the coagulation result (3 μl aliquot of 350 mg/ml solution in PBS pH 7.4, 100 μl BSA 40 mg/ml, 30 minutes) was “a coagulated, opaque mass of several millimetres thickness was formed”; the coagulation result (4 μl aliquot of 350 mg/ml solution in PBS pH 7.4, 100 μl BSA 40 mg/ml, 30 minutes) is recorded as “a coagulated, opaque mass of several millimetres thickness was formed”; the coagulation entry (5 μl aliquot of 350 mg/ml solution in PBS pH 7.4, 100 μl BSA 40 mg/ml, 30 minutes) is “a coagulated, opaque mass of several millimetres thickness was formed”; the coagulation result (5 μl aliquot of 350 mg/ml solution, BSA solution (100 gi, 40 mg/ml), 1.0 ml syringe, 24 h) is “the fluid coagulated”. Besides, the “depth of coagulated mass versus quantity of gold present” value (Examples 4-8, 1-5 μl aliquots, digital image) is listed as “a comparable linear increase in the depth of coagulated mass”.
